Consider 61 molecules from PubChem BioAssay AID1347120 (National Center for Advancing Translational Sciences (NCATS), 2019).

This is a selection; strong and weak results do not stand in their true shares. Inconclusive results are not listed. Calls of active or inactive are those of the source. Calls follow the shape of the dose curve; as a rule, active = well fitted activation curve with a large enough effect; inconclusive = small, poorly fitted or top-dose-only effect; inactive = no such curve, though single readings can be large or run the other way.

The nature of the assay: qHTS for Suppressors of FUS Proteinopathy: Primary screen using FUS-linked yeast assay.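 Also: plate controls were DMSO vehicle for no effect and reference control for full effect; nearly all actives have a fitted effect of over 55% in size.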 To be noted: S. cerevisiae FUS-expressing, OD600, 24 h; at 76.6 µM (top of the series). From the text:
Several widespread neurodegenerative diseases, including Alzheimer disease, Huntington disease, Frontotemporal Lobar Degeneration (FTLD) and Amyotrophic Lateral Sclerosis (ALS), share a common pathological feature, namely accumulation of specific protein aggregates in diseased tissue. These diseases which is associated with protein misfolding (proteinopathies) have become increasingly problematic as the population ages and life expectancies are extended. Most proteinopathies are currently incurable, a situation confounded by the fact that the basis of neurodegeneration is generally poorly understood. There exists urgent and significant need to find therapeutics that can inhibit the toxicity associated with protein aggregation. A novel approach to understand the underlying mechanisms of neurodegenerative diseases has recently emerged in which the disease conditions are modeled in the yeast (Saccharomyces cerevisiae), a tractable eukaryotic organism with conserved protein quality control mechanisms. Yeast offers quick and reliable genetic manipulations and can be easily tailored to high-throughput screening (HTS).
For this project, a yeast model of the FUS proteinopathies (a spectrum of neurodegenerative diseases that include ALS and a subtype of FTLD) was generated and employed. The cytoplasmic accumulation of the DNA/RNA-binding protein FUS (also known as TLS) is causative to both familial and sporadic forms of ALS and FTLD. This yeast model recapitulates neuronal pathology by showing severe cytotoxicity associated with cytoplasmic accumulation of FUS aggregates and a specific interaction between FUS and TDP-43, another ALS-associated protein. […] Specifically, the cellular accumulation of misfolded FUS that disrupts RNA homeostasis in both yeast and higher eukaryotes. This model was validated to be suitable for quantitative HTS (qHTS) use for finding genetic or chemical factors that restore growth. […] Identified compounds that inhibits FUS-yeast toxicity is flagged, re-acquired, and validated for further investigation and optimization.
NIH Chemical Genomics Center [NCGC]
NIH Molecular Libraries Probe Production Centers Network [MLPCN]
Assay Submitter (PI): Frank Shewmaker PhD, Uniformed Services University of the Health Sciences
Compound CP55940 was used as the positive control. Column 1 was treated with CP55940 titration from 92uM (final concentration, 1:2 dilution), while Column 2 was treated with top dose 92uM. Columns 3 and 4 were treated with DMSO only as negative control to assess background and noise signal.
Four hundred fifty microliter of cultured yeast (in 20mL rich medium) provided by Dr. Shewmaker lab was incubated at 30C at 99% humidity for 3hr. The culture was then spun down at 4000rpm for 5min and the cell pellet was resuspended in 2mL of Sdmin Media + ALU(330) + 2.5% Raffinose. One hundred microliter of the suspension was added to 900uL of water and OD of the solution was obtained. Twenty mL of responding medium (provided by Shewmaker lab) + 2.5% raffinose was added to ensure cell density of 0.1; the solution was incubated overnight. Working cell solution (FUS-yeast in Sdmi + Sdmi + 1X ALU + 2% galactose media) was prepared (final OD at 0.005) and 3uL was dispensed in a 1536-well Aurora high based clear bottom assay plates. Controls and library compounds (at various final concentrations from 40uM to 0.32uM) were added using a 1536-well pin array using the Kalypsys pin-tool. The plates were then incubated for 24hrs in a cell-culture incubator (30C; 99% humidity). Absorbance at 600nm was then read using the PerkinElmer ViewLux plate reader.
For orientation: qHTS replaces the single test concentration by a dilution series.
For the molecule `CCCCn1nnnc1C(c1cccc(OC)c1OC)N1CCC(n2c(=O)[nH]c3ccccc32)CC1` (stereo unspecified), the growth rescue (activation) is inactive: 10.9%.

With `CCc1cc(C(=O)NCC2(N3CCCCC3)CCCCC2)sc1C`, the growth rescue (activation) was inactive: 30.4%. Regarding `O=C(O)c1cccc(Nc2c([N+](=O)[O-])cc([N+](=O)[O-])cc2[N+](=O)[O-])c1`, the growth rescue (activation) was inactive: 14.2%. With `N/C(=N\O)c1c(N)no[n+]1[O-]`, the growth rescue (activation) was inactive: -27.4%. As for `CCOC(=O)N1CCC(Nc2ccc(C)cc2)CC1`, the growth rescue (activation) is inactive: 6.03%.

As to `COc1ccc(C(=O)NCC2(N3CCOCC3)CCCCC2)cc1OC`, the growth rescue (activation) is inactive: -17.2%.

Regarding `NC(=O)C1(Nc2ccccc2)CCN(Cc2ccccc2)CC1`, the growth rescue (activation) is inactive: -17.2%. Consider `O=C(NCC1(N2CCOCC2)CCCCC1)c1cc(Br)ccc1Cl`, for which the growth rescue (activation) was inactive: -21.7%. For the molecule `CCCCn1nnnc1C(c1ccccc1)N1CCC(n2c(=O)[nH]c3ccccc32)CC1` (stereo unspecified), the growth rescue (activation) was inactive: 20.8%.

Turning to `COc1cc(C(=O)NCC2(N3CCOCC3)CCCCC2)cc(OC)c1C`, the growth rescue (activation) was inactive: -7.02%.

As for `c1ccc(CN2CCC(Nc3ccccc3)CC2)cc1`, the growth rescue (activation) is inactive: 16.4%.

Turning to `O=C(NCC1(N2CCOCC2)CCCCC1)c1ccccc1`, the growth rescue (activation) is inactive: -21.6%. Regarding `CCCN1CCC(Nc2cc(OC)cc(OC)c2)CC1`, the growth rescue (activation) is inactive: 31.2%. `O=c1[nH]c2ccccc2n1C1CCN(C(c2ccccc2)c2nnnn2C2CCCC2)CC1` (stereo unspecified): the growth rescue (activation) is inactive: 9.07%. Consider `CN(C)C1(CNC(=O)c2cccc(C#N)c2)CCCCC1`, for which the growth rescue (activation) was inactive: 10.4%. As for `CCOC(=O)C(CC)C1=NC(C)(C)Cc2ccccc21.O=[N+]([O-])c1cc([N+](=O)[O-])c(O)c([N+](=O)[O-])c1` (stereo unspecified), the growth rescue (activation) was inactive: -22.7%. As for `O=C(NCC1(N2CCOCC2)CCCCC1)c1ccc([N+](=O)[O-])cc1`, the growth rescue (activation) was inactive: -16.5%. On to `N#Cc1ccc(C(=O)NCC2(N3CCCCC3)CCCCC2)cc1`, for which the growth rescue (activation) was inactive: 24.2%. Take `O=C(NCC1(N2CCOCC2)CCCCC1)c1ccccc1[N+](=O)[O-]`: the growth rescue (activation) is inactive: -30.2%. Take `CC(C)(C)c1ccc(C(=O)NCC2(N3CCOCC3)CCCCC2)cc1`: the growth rescue (activation) is inactive: 0.849%. In the case of `O=C(NCC1(N2CCCCC2)CCCCC1)c1ccco1`, the growth rescue (activation) was inactive: 10.6%.

Consider `CN(C)c1ccc(C(=O)NCC2(N3CCCCC3)CCCCC2)cc1`, for which the growth rescue (activation) is inactive: 7.69%. Turning to `Cc1ccccc1C(=O)NCC1(N(C)C)CCCCC1`, the growth rescue (activation) was inactive: 1.04%.

Take `Cc1ccccc1NC1(C#N)CCN(Cc2ccccc2)CC1`: the growth rescue (activation) was inactive: 15.9%. Consider `CCN1CCC(Nc2cccc(F)c2)CC1`, for which the growth rescue (activation) was inactive: 9.91%.

In the case of `COc1ccc(C(c2nnnn2C2CCCCC2)N2CCC(n3c(=O)[nH]c4ccccc43)CC2)cc1` (stereo unspecified), the growth rescue (activation) is inactive: -19%. Consider `Cc1ccc(NC2(C#N)CCN(Cc3ccccc3)CC2)cc1`, for which the growth rescue (activation) was inactive: -22.2%. For `Cc1ccc(C(=O)NCC2(N3CCCCC3)CCCCC2)o1`, the growth rescue (activation) was inactive: 3.39%. As for `Cc1ccc(Nc2c([N+](=O)[O-])cc([N+](=O)[O-])cc2[N+](=O)[O-])cc1`, the growth rescue (activation) was inactive: -19.8%. The result for `Fc1ccccc1NC1CCN(Cc2ccccc2)CC1` reads inactive: 1.11%.

Take `O=c1[nH]c2ccccc2n1C1CCN(C(c2ccnc3ccccc23)c2nnnn2C2CCCCC2)CC1` (stereo unspecified): the growth rescue (activation) was inactive: -17.1%. With `COc1cc(OC)cc(C(=O)NCC2(N3CCCCC3)CCCCC2)c1`, the growth rescue (activation) is inactive: -0.167%. For the molecule `CC(=O)N(c1ccccc1)C1CCNCC1`, the growth rescue (activation) was inactive: -17.9%. On to `CN(C)C1(CNC(=O)c2ccc(C(C)(C)C)cc2)CCCCC1`, for which the growth rescue (activation) was inactive: 3.2%. Take `CCC(c1nnnn1C1CCCCC1)N1CCC(n2c(=O)[nH]c3ccccc32)CC1` (stereo unspecified): the growth rescue (activation) was inactive: 15.5%. With `CN1CCC(Nc2ccc(Cl)cc2)CC1`, the growth rescue (activation) was inactive: -1.43%.

Consider `CCC(CO)(C(=O)OC1CN2CCC1CC2)c1ccccc1` (stereo unspecified), for which the growth rescue (activation) is inactive: -36.8%. As for `COc1cc(OC)cc(C(=O)NCC2(N3CCOCC3)CCCCC2)c1`, the growth rescue (activation) is inactive: 0.0571%. For the molecule `COc1cccc(C(c2nnnn2C2CCCC2)N2CCC(n3c(=O)[nH]c4ccccc43)CC2)c1OC` (stereo unspecified), the growth rescue (activation) was inactive: 38.2%.

For the molecule `COc1cc(C(=O)NCC2(N3CCOCC3)CCCCC2)cc(OC)c1OC`, the growth rescue (activation) is inactive: -11.1%.

Consider `COc1cccc(C(=O)N(c2cc(C)cc(C)c2)C2CCN(C(=O)OC(C)(C)C)CC2)c1`, for which the growth rescue (activation) is inactive: 26.1%. Take `CCCOc1ccc(C(=O)NCC2(N(C)C)CCCCC2)cc1`: the growth rescue (activation) is inactive: 23.3%.

Take `CC(C)(C)OC(=O)N1CCC(Nc2ccccc2)CC1`: the growth rescue (activation) is inactive: 27.5%. In the case of `O=C(O)C1(Nc2ccccc2)CCN(Cc2ccccc2)CC1`, the growth rescue (activation) was inactive: -28.1%. As to `NN(c1ccccc1)C1CCN(CCc2ccccc2)CC1`, the growth rescue (activation) is inactive: -3.79%. The result for `CN1CCC(Nc2ccc(F)c(Cl)c2)CC1` reads inactive: 6.79%; that for `CCOC(=O)N1CCC(Nc2ccc(OC)cc2)CC1`, inactive: -32.9%; that for `O=c1[nH]c2ccccc2n1C1CCN(C(c2cc3ccccc3o2)c2nnnn2C2CCCCC2)CC1` (stereo unspecified), inactive: 24.6%. As to `N#CC1(Nc2ccccc2)CCN(Cc2ccccc2)CC1`, the growth rescue (activation) is inactive: 0.194%.

For `O=C1C(O)=C([N+](=O)[O-])C(=O)C(O)=C1[N+](=O)[O-]`, the growth rescue (activation) was inactive: -15%.

Regarding `O=C(NCC1(N2CCOCC2)CCCCC1)c1cc2ccccc2o1`, the growth rescue (activation) was inactive: 10.4%. With `O=c1[nH]c2ccccc2n1C1CCN(C(c2ccccc2OC(F)(F)F)c2nnnn2C2CCCCC2)CC1` (stereo unspecified), the growth rescue (activation) was inactive: 13.2%. Take `O=C(NCC1(N2CCCCC2)CCCCC1)c1ccc(Cl)nc1`: the growth rescue (activation) is inactive: 12.7%. The result for `CSc1ccccc1C(=O)NCC1(N2CCCCC2)CCCCC1` reads inactive: 10.4%; that for `Cc1cccc(NC2(C#N)CCN(Cc3ccccc3)CC2)c1`, inactive: -8.55%; that for `O=C(NCC1(N2CCCCC2)CCCCC1)c1ccc(=O)[nH]c1`, inactive: -13.6%. For `CCCCn1nnnc1C(c1cccs1)N1CCC(n2c(=O)[nH]c3ccccc32)CC1` (stereo unspecified), the growth rescue (activation) was inactive: -13.5%. Under `O=C(NCC1(N2CCCCC2)CCCCC1)c1cccs1` stands inactive: 6.88%. The result for `CCCCn1nnnc1C(CC)N1CCC(n2c(=O)[nH]c3ccccc32)CC1` (stereo unspecified) reads inactive: -2.5%. For `COc1ccc(C(=O)NCC2(N3CCCCC3)CCCCC2)cc1`, the growth rescue (activation) was inactive: 22.5%. In the case of `CCC(c1nnnn1C1CCCC1)N1CCC(n2c(=O)[nH]c3ccccc32)CC1` (stereo unspecified), the growth rescue (activation) is inactive: 16.7%.
